The assay has as its target substance P receptors (Homo sapiens, UniProt P25103). Kind of assay: Radioligand receptor binding inhibitory activity using receptor from human lymphoblast cells (IM-9), 125I-BHSP. Particulars: read-out: IC50 (concentration necessary to cause 50% inhibition), radioligand 125I-BHSP, 25° C., 30 minutes, tested form: HCl.

Amino acid sequences for entries named in this document (tags omitted).
UniProt P25103, whole entry: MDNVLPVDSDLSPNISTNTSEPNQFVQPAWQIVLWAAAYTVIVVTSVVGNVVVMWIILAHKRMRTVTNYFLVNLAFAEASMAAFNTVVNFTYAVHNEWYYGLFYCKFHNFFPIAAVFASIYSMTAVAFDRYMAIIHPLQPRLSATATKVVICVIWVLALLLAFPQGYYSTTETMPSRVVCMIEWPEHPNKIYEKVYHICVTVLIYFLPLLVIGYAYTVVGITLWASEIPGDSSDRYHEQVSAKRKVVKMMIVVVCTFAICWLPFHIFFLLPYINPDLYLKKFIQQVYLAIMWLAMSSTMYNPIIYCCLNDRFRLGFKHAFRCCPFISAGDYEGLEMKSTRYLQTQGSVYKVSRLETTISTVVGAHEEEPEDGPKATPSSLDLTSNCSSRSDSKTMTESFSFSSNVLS

As for `CC(=O)NCC(=O)N1CCC(NCc2cc(-c3ccc(C#N)cc3)ccc2OC(F)(F)F)C(c2ccccc2)C1` (stereo not shown), the IC50 came out at 21 pM.

Values taken from patent US20070149570A1, “Piperidine derivative and use thereof” (priority 2005, published 2007).
